The text below walks through data of PubChem BioAssay AID743258 (The Scripps Research Institute Molecular Screening Center, 2014).

By UniProt entry, the sequences of proteins in these tests, tags left out.
UniProt P19174, whole entry: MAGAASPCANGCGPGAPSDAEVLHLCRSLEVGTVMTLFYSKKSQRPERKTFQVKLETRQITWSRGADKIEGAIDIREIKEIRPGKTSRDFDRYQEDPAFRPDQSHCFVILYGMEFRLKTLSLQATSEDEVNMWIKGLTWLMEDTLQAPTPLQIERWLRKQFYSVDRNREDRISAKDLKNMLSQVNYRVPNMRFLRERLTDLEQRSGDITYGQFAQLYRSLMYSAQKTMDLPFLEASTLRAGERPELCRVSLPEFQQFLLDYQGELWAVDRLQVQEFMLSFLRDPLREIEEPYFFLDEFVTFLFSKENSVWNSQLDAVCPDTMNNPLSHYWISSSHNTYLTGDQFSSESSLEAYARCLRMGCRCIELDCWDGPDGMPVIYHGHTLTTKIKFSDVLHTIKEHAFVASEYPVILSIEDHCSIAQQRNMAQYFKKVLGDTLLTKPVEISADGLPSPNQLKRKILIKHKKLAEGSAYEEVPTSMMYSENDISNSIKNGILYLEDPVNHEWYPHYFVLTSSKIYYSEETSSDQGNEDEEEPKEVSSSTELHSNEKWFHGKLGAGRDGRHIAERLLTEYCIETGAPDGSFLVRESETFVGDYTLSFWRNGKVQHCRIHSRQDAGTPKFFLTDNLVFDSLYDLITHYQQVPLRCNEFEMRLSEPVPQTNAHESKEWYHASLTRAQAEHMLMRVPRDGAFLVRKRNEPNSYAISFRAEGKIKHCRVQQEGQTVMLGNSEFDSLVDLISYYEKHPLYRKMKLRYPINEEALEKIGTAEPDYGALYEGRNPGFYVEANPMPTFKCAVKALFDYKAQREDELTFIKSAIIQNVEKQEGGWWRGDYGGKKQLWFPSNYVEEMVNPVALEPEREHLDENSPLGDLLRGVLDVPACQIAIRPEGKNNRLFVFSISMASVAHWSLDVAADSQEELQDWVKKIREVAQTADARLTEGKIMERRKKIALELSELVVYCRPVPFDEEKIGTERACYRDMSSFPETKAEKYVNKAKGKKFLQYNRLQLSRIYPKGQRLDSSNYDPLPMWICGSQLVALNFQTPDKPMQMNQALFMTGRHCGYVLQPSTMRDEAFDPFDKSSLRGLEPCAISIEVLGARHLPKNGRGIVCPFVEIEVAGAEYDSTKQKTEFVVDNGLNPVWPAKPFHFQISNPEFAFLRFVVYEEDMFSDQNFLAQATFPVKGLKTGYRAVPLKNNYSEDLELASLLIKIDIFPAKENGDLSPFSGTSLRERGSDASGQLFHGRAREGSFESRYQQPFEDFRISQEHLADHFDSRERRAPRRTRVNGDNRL

The list shows a part of the results, in another mix than the full data. Calls of active or inactive are those of the source. Rule as the data show it: active = inhibition above about 9.5%; inactive = the rest.

The target in the assay is 1-phosphatidylinositol 4,5-bisphosphate phosphodiesterase gamma-1 (Homo sapiens) (UniProt P19174). Nature of the assay: human PLCG1 activity blockade – biochemical, fluorescence, counter-screen for PLC-beta3 inhibitor project (AID 743258). Particulars: purified PLC-gamma1, fluorogenic substrate, at 12.3 µM, active compounds read high. (In general: Counterscreens check selectivity or assay interference.)
Take `O=[N+]([O-])c1cc([N+](=O)[O-])c(C(F)(F)F)c([N+](=O)[O-])c1O`: the inhibition (usually the drop in the measured response relative to a control, in per cent) was inactive: -2.39%.
